Test results reported in ChEMBL document CHEMBL1165946, “Development of antiproliferative phenylmaleimides that activate the unfolded protein response” (Bioorg Med Chem, 2010).

Legend:
[1] = Upregulation of unfolded protein response-related DDIT3 gene expression in human Hep3B cells at 10 uM after 1 hr by RT-PCR analysis relative to control; type: functional, cell-based; settings: Hep 3B2
How it was run: (§1)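 HEP3B cells treated 1 h with 10 µM analogue, compared with untreated cells. Gene expression measured by real-time PCR with SYBR chemistry and gene-specific primer pairs, triplicate wells, GAPDH as endogenous control. Analysed by the comparative Ct method and expressed as fold induction over untreated control (n = 3, SD). Significance set at p <0.05.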

[2] = Upregulation of unfolded protein response-related ATF4 gene expression in human Hep3B cells at 10 uM after 1 hr by RT-PCR analysis relative to control; type: functional, cell-based; settings: Hep 3B2; how it was run: as §1

## O=C1C(SCCO)=C(SCCO)C(=O)N1c1ccc(-c2ccccc2)cc1
[1]
  fold change (FC): 2
[2]
  fold change (FC): 2
